Test results from PubChem BioAssay AID625 (Vanderbilt High Throughput Screening Facility, 2007).
The entries are a selection whose mix differs from that of the whole data set. Some tests of the compounds listed are not included; inactive here does not mean inactive elsewhere. Calls of active or inactive are those of the source.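 Rule for the calls: active = fluorescence slope after compound addition differing from the mean of all tested samples at 99.7% confidence, mostly higher but some lower; inactive = the rest.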

The chains behind the UniProt entries cited, without tags or fusion partners.
UniProt P08173, whole entry, looked up: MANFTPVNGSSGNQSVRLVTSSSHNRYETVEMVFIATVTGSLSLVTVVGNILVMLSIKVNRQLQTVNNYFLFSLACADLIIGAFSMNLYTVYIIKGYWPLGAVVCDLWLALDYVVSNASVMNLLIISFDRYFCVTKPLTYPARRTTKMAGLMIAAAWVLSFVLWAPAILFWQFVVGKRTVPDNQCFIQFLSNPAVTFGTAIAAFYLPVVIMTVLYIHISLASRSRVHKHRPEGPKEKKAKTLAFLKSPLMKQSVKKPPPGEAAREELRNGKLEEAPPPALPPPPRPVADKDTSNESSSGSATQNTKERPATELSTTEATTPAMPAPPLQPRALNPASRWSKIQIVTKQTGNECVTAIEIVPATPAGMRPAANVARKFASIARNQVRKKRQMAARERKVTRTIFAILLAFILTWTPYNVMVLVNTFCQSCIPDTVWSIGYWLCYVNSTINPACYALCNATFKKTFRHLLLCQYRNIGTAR

target: Muscarinic acetylcholine receptor M4 (Homo sapiens) (UniProt P08173); test: M4-linked GIRK flux change, two-sided – cell-based, HEK293 M4/GIRK, thallium flux, BTC-AM, M4 allosteric agonist project, primary screen (AID 625); settings: at 10 µM, actives lie on both sides;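 note: thallium influx through GIRK channels coupled to M4 in HEK293 cells with BTC-AM dye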

Structure (SMILES)	fluorescence slope
O=C(OC1CN2CCC1CC2)C(CO)(c1ccccc1)c1ccccc1 (stereo unspecified)	inactive: 0.00487
